AlphaSeq binding of Ab-14 light chain variants to a spike HR2 peptide

The target is the same throughout: PDVDLGDISGINAS, from the HR2 region of SARS-CoV-2 spike.

Parent scFv Ab-14: VH joined to VL by a (GGGGS)3 linker. Changes lie in the light chain CDRs alone.
VH: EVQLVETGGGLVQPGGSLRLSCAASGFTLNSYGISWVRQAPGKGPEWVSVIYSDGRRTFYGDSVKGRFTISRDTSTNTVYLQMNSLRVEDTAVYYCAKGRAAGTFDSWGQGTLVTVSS
VL: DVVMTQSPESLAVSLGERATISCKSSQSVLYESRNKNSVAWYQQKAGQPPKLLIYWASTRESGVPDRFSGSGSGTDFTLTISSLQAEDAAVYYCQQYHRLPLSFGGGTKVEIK

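Phage display of a naive human antibody library on the peptide gave the parent. AAYL50 was designed without a model: most single CDR substitutions and a random sample of double and triple ones. In AlphaSeq, yeast of one mating type display the scFv and yeast of the other type display the target. The frequency of each diploid, read from paired DNA barcodes, reflects how well the two displayed proteins bind. Scores were corrected for input abundance and mapped to Kd with protein pairs of known affinity run in the same pool. Mating was done three times.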

Substitutions are numbered in sequence along the VL above, starting at 1 (not Kabat). The read-out is the apparent dissociation constant on a log10 scale (nM): the lower, the stronger. Averages over replicates are reported, and they cover detected replicates only. An entry "nd" has no value in the source: the pair was not observed among the diploids in that replicate. This suggests poor binding but is not conclusive.

| changes | log10 Kd (nM) by replicate | log10 Kd (nM), mean | empty controls |
|---|---|---|---|
| S28G K36E R99V | 2.12 / 2.35 / 2.68 | 2.38 | 5/9 (4.73) |
| S33R R34T | 0.44 / 0.88 / 0.60 | 0.64 | 2/9 (4.54) |
| S26I S28R A57N | 2.25 / nd / nd | 2.25 | 0/9 |
| H98R | 1.18 / 1.21 / 1.33 | 1.24 | 3/9 (4.06) |
| Q27R L30C K36W | 2.96 / 2.84 / 2.96 | 2.92 | 8/9 (4.74) |
| N37E S58E | 1.29 / 1.74 / 1.99 | 1.67 | 1/9 (3.70) |
| E61L Q96T R99P | 2.04 / 1.96 / 2.46 | 2.15 | 4/9 (5.12) |
| V29G K36C Q95R | 5.16 / nd / 6.25 | 5.70 | 5/9 (4.36) |
| S38A T59W S103H | 1.61 / 2.74 / nd | 2.17 | 0/9 |
| S25I K36A Q96V | -0.55 / 0.00 / -0.35 | -0.30 | 2/9 (4.65) |
| L30Y V39Y S103I | 3.19 / nd / nd | 3.19 | 0/9 |
| S25M R34Y L100G | 2.00 / 2.02 / 2.76 | 2.26 | 4/9 (3.59) |
| K36F E61T S62P | 0.41 / 0.80 / 0.58 | 0.60 | 4/9 (4.90) |
| T59L Q95R Q96K | nd / 2.80 / nd | 2.80 | 0/9 |
| K36C W56Q Y97I | 0.89 / 1.02 / 0.95 | 0.95 | 1/9 (4.79) |
| S28P W56L H98T | 1.22 / 1.18 / 1.33 | 1.24 | 4/9 (4.70) |
| L30Y S33D N35K | 0.64 / 0.78 / 0.85 | 0.76 | 1/9 (4.10) |
| R60T Q96H S103C | nd / nd / 2.54 | 2.54 | 0/9 |
| R60D S62N L100Y | nd / nd / 4.00 | 4.00 | 3/9 (3.87) |
| Y31T K36W P101Q | 1.07 / 1.04 / 1.51 | 1.21 | 0/9 |
| E32V R34L R99G | 3.66 / nd / nd | 3.66 | 1/9 (3.60) |
| S28T S38C L102S | 2.48 / 2.26 / 2.55 | 2.43 | 1/9 (3.78) |
| K36F A57Y H98L | nd / 4.08 / nd | 4.08 | 3/9 (4.70) |
| S28Y W56C A57C | 3.60 / 2.36 / 4.22 | 3.39 | 2/9 (4.28) |
| N35W S58G S103L | nd / nd / nd | nd | 0/9 |
| W56A A57S L100W | nd / nd / nd | nd | 3/9 (4.31) |
| E61M L100Y P101K | nd / nd / 5.03 | 5.03 | 1/9 (4.67) |
| Y31W S58D S103D | 0.70 / 0.88 / 0.68 | 0.76 | 2/9 (5.19) |
| Q27K S58V E61G | nd / nd / 3.41 | 3.41 | 0/9 |
| K36D V39R H98M | 4.14 / 3.75 / 4.79 | 4.23 | 0/9 |
| S58N | 3.46 / 3.74 / 3.94 | 3.71 | 8/9 (4.49) |
| S26F S38C S58C | nd / nd / nd | nd | 1/9 (5.31) |
| S25G N35L L102T | nd / nd / nd | nd | 0/9 |
| K24R N35P W56P | 5.39 / 4.12 / 4.72 | 4.74 | 5/9 (3.78) |
| Q27I A40S R60Y | nd / 4.10 / nd | 4.10 | 0/9 |
| K24F E32H Q95I | 3.72 / 2.12 / nd | 2.92 | 1/9 (4.28) |

The opening 2 entries, copied out:

| changes | log10 Kd (nM) by replicate | log10 Kd (nM), mean | empty controls |
|---|---|---|---|
| S28G K36E R99V | 2.12 / 2.35 / 2.68 | 2.38 | 5/9 (4.73) |
| S33R R34T | 0.44 / 0.88 / 0.60 | 0.64 | 2/9 (4.54) |

Empty control strains, which show no peptide, gave a signal in 18% of pairings with library AAYL50; the median was 4.19 and 95% of these signals were weaker than 2.99. No background was subtracted. The control count says in how many pairings with the empty strains this scFv gave a signal, with their mean in brackets.

Values reported by Engelhart et al. 2022, doi:10.1038/s41597-022-01779-4 (FLAb copy).